The results in this text go back to patent US5872097A, “Oligopeptides with affinity to opioid receptors” (Pharmacia & Upjohn Aktiebolag, priority 1992, dated 1999).

Sequences of proteins named here, by UniProt entry; tags and fusion partners are left off.
UniProt P33535, whole entry: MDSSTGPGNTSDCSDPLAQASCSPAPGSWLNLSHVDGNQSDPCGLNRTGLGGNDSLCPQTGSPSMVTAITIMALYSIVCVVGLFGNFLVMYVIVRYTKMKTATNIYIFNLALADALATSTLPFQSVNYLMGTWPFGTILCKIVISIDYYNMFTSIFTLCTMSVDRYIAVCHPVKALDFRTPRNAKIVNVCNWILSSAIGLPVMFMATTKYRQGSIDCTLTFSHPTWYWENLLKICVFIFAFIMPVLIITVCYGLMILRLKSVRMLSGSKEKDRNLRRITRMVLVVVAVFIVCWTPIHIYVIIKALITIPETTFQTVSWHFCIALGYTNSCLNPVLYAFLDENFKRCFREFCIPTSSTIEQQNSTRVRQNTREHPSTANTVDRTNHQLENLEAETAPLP

The target in assay [1] is T1, μ-receptor (Rattus norvegicus, UniProt P33535).
T1 construct: from tissue; host or cells: rat brain (homogenate / synaptic plasma membranes, whole brain without cerebellum)
The assay is described as follows: (3H)-DAMGO displacement receptor assay. To be noted: displacement of (3H)-DAMGO specific binding, radioligand about 24 x 10^-10 M; LIGAND program. How it is done:
(§1) In the experiments noted in FIGS. 3 and 4 and in Table 1 (^3 H)-(D-Ala^2,MePhe^4,Gly-ol^5)-enkephalin (DAGO or DAMGO) and (^3 H)-(D-Ala^2,D-Leu^5)-enkephalin (DADL) purchased from Amersham (Buckinghamshire, England) were used as radioligands in a binding assay performed as in Reg.
(§2) The peptides were employed for both receptor tests and bioassays on electrically stimulated guinea pig ileum strips (GPI-tests). The receptor assays were performed in the same manner as above with DAMGO as a radioligand to the μ-receptor. In the assays (^3 H)-DAMGO specific binding was displaced by the different tested substances (10^-5 M to 10^-10 M). […] Ups. […] The magnitude of activity in relation to a standard compound, normorphine was recorded.

In assay [2] the target is T2, μ-receptor ((3H)-DAGO binding site) (Rattus norvegicus, UniProt P33535).
T2 construct: from tissue; host or cells: rat brain (homogenate / synaptic plasma membranes, whole brain without cerebellum)
The assay is described as follows: (3H)-DAGO binding assay, rat brain homogenates. To be noted: duplicate determination, one site model, EBDA/LIGAND.
Description: as §1
(§3) In the publication β-Casomorphins and Related Peptides Ed.

For assay [3], the target named is T3, δ-receptor ((3H)-DADL binding site) (Rattus norvegicus, UniProt P33533).
T3 construct: from tissue; host or cells: rat brain homogenate
The assay is described as follows: (3H)-DADL binding assay, rat brain homogenates. To be noted: duplicate determination, one site model, EBDA/LIGAND.
Description: as §1, §3

Assay [4] deals with electrically stimulated guinea pig ileum strips. To be noted: relative to standard compound normorphine = 1. How it is done:
as §2

The structures appear in SMILES notation.

A word on the IC50: it is the point on the concentration scale where inhibition reaches its midpoint. Turning to `CSCC[C@H](NC(=O)[C@H](Cc1ccccc1)NC(=O)[C@@H](C)NC(=O)[C@@H](N)Cc1ccc(O)cc1)C(=O)O` [Tyr-D-Ala-Phe-Met, reference compound], the IC50 in assay [1] was 0.64 nM.
For orientation: Ki means the dissociation constant of the complex between target and ligand, obtained from inhibition or displacement. Higher therefore signals lower affinity. Turning to `CC(C)C[C@H](NC(=O)[C@H](Cc1ccccc1)NC(=O)[C@H](CO)NC(=O)[C@@H](N)Cc1ccc(O)cc1)C(=O)N[C@@H](CCC(=O)O)C(=O)O` [Tyr-Ser-Phe-Leu-Glu], the results for the inhibition constant Ki in assay [2] and in assay [3] were 7400 nM and 5800 nM, respectively. In assay [4], the “GPI-test relative activity normorphine = 1” value is reported as less than 0.01. This compound registered an IC50 in assay [1] of 7.3 nM.
